{
  "source": "patent US6596315B1",
  "about": "“Method of producing drug particles” (AstraZeneca AB, priority 1998, dated 2003)",
  "assay": "HPLC determination of degradation products in particles after SEDS processing",
  "assay_type": "physicochemical",
  "details": "formoterol fumarate particles after SEDS processing; for degradation products (HPLC): ethane or carbon dioxide as antisolvent; for Degradation product a: antisolvent CO2 or ethane, 80-100 bar, 40-45 °C, HPLC",
  "protocol": "High-Perfomance Liquid Chromatography (HPLC)\nIdentification and quantification of degradation products were determined using HPLC technique.\nThe amount of degradation products was calculated from the chromatograms as area-%. Thus, 0.2% area-procent means that the amount of degradation products was 0.2% of the initial weight of the substance.\nParticles were prepared in a modified SEDS equipment (Bradford Particle Design Limited, UK) from a solution, containing substance(s).\nThe solution and the antisolvent were introduced into a coaxial nozzle, which was located inside a pressure vessel. Under controlled pressure and temperature conditions, the antisolvent extracts the solvent from the solution droplets. The concentration of the solute in the droplets is thereby increased, leading to rapid particle formation. The particles were collected in a vessel, while the antisolvent and the extracted solvent emerged through a back pressure regulator.\nThe nozzle used was a two component nozzle, with an opening of 0.2 mm in diameter. In the two component nozzle the supercritical fluid passes through the inner passage, while the solution passes through the outer passage.",
  "data": [
    {"substance": "formoterol fumarate [Experiment 3-1a]", "values": [
      {"measurement": "degradation products (HPLC)", "result": 0.26, "unit": "weight %"},
      {"measurement": "Degradation product a", "result": 0.26, "unit": "w %"}
    ]},
    {"substance": "formoterol fumarate [Experiment 3-1b]", "values": [
      {"measurement": "degradation products (HPLC)", "result": 0.07, "unit": "weight %"},
      {"measurement": "Degradation product a", "result": 0.07, "unit": "w %"}
    ]},
    {"substance": "formoterol fumarate [Experiment 3-2a]", "values": [
      {"measurement": "degradation products (HPLC)", "result": 0.22, "unit": "weight %"},
      {"measurement": "Degradation product a", "result": 0.22, "unit": "w %"}
    ]},
    {"substance": "formoterol fumarate [Experiment 3-2b]", "values": [
      {"measurement": "degradation products (HPLC)", "result": 0.11, "unit": "weight %"},
      {"measurement": "Degradation product a", "result": 0.11, "unit": "w %"}
    ]}
  ]
}
